Biological target: thrombin

Thrombin Time: 33 s
Substance: prourokinase (from UniProt P00749) (enzyme)
